Molecular target: T1, HRAS, mGppNHp-bound (human, UniProt P01112-1 1-189)
T1 construct: human HRAS; Loaded with mGppNHp, a fluorescent non-hydrolysable GTP analogue; That the RAS proteins were the pGEX (GST) constructs is surmised; also called HRAS1; p21HRAS
Assay: fluorescence polarisation; increasing concentrations of the RA/RB domain as MBP fusion protein (0.002-300 µM; or MBP alone) titrated to mGppNHp-bound RAS protein (1 µM); 30 mM Tris-HCl pH 7.4, 100 mM NaCl, 5 mM MgCl2, 3 mM DTT; Kd from a quadratic ligand-binding equation
Conditions: both partners purified

B1: RASSF7 RA domain, MBP fusion protein (domain or fragment, human, UniProt Q02833 6-89, looked up)
chain: AAMELKVWVDGIQRVVCGVSEQTTCQEVVIALAQAIGQTGRFVLVQRLREKERQLLPQECPVGAQATCGQFASDVQFVLRRTGP
notes: RASSF7 RA domain, aa 6-89 of Q02833
Kd: 140 µM
